The values that follow come from ChEMBL document CHEMBL4354845, “Discovery and Structure-Activity Relationships of Nociceptin Receptor Partial Agonists That Afford Symptom Ablation in Parkinson's Disease Models” (J Med Chem, 2020).

The nature of series [1]: Efflux ratio of apparent permeability across basolateral to apical side to apical to basolateral side in human Caco2 cells by HPLC-MS/MS analysis. The settings on record: caco-2. For orientation: Caco-2 monolayers are a common model of the intestinal barrier.
Series [2] can be described thus: Efflux ratio of apparent permeability across basolateral to apical side to apical to basolateral side in dog MDCK-MDR1 cells by HPLC-MS/MS analysis.
A short description of series [3]: Ratio of Cmax in Sprague-Dawley rat brain to Cmax in Sprague-Dawley rat plasma. The conditions noted are these: strain Sprague-Dawley.

The structures appear in SMILES notation.

For `CC(C)[C@H]1CC[C@@H](N2CCC(n3cc(CCN)c4ccccc43)CC2)CC1.Cl.Cl`, the results for the Ratio in series [1] and in series [2] were 1.5 and 37, respectively.
With `CC(C)[C@H]1CC[C@@H](N2CCC(N3CCc4ccccc43)CC2)CC1`, the Ratio in series [1] is 0.8; in series [2], 1.3; in series [3], 6.73.
